The values that follow come from ChEMBL document CHEMBL4819154, “Discovery of quinuclidine modulators of cellular progranulin” (Bioorg Med Chem Lett, 2021).

A short description of this assay: Increase of PGRN level in mouse microglial BV-2 cell relative to control. In kind it is functional.

Regarding `O=C(OC1CN2CCC1CC2)C(=O)N1CCc2ccccc2[C@@H]1c1ccc(F)cc1` (stereo partly specified), the EC50 is more than 10 µM.

Usually EC50 stands for the midpoint of the concentration-response curve. A lower EC50 goes with a more potent agent.
